Only a part of the results on these compounds is given; other tests are left out.
Molecular target: Delta-type opioid receptor (Homo sapiens, UniProt P41143)
Experiment: ChEBML_146444
Description: Compound was evaluated for the opioid receptor delta affinity

By UniProt entry, the sequences of proteins in these tests, tags left out.
UniProt P41143, whole entry: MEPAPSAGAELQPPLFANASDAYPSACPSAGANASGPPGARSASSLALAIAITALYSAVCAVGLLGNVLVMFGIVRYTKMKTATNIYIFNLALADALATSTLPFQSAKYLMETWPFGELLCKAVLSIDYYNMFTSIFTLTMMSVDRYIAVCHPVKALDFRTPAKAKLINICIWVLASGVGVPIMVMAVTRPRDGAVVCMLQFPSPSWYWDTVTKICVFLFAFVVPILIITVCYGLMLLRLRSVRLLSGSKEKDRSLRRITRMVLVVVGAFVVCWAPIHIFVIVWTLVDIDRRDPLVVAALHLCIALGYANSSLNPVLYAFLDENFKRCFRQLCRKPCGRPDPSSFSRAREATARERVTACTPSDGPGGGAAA

## CC1c2cccc3cccc(c23)C1C(=O)N(C)[C@H]1CCC2(CCCO2)C[C@@H]1N1CCCC1 (stereo partly specified)
  Ki: 578 nM
